{"source": "paper PMC11386433", "about": "(Journal of Medicinal Chemistry, 2024)", "target": "δOR (Homo sapiens, UniProt P41143)", "test": "Radioligand binding, [3H]diprenorphine, HEK293T membrane preparations", "details": "read-out: Kd of the radioligand; specific binding affinity of the radioligand, HEK293T membranes", "note": "Only a part of the results on these compounds is given; other tests are left out."}
{"substance": "[^3H]diprenorphine", "values": [{"measurement": "Kd", "value": 0.27, "unit": "nM"}]}
